Here are results for one compound from ChEMBL document CHEMBL1128359, “Dicarboxylic acid dipeptide neutral endopeptidase inhibitors” (J Med Chem, 1995).

The experiment addresses T1, Neprilysin (Rattus norvegicus, UniProt P07861).
T1 sequence (P07861 whole entry): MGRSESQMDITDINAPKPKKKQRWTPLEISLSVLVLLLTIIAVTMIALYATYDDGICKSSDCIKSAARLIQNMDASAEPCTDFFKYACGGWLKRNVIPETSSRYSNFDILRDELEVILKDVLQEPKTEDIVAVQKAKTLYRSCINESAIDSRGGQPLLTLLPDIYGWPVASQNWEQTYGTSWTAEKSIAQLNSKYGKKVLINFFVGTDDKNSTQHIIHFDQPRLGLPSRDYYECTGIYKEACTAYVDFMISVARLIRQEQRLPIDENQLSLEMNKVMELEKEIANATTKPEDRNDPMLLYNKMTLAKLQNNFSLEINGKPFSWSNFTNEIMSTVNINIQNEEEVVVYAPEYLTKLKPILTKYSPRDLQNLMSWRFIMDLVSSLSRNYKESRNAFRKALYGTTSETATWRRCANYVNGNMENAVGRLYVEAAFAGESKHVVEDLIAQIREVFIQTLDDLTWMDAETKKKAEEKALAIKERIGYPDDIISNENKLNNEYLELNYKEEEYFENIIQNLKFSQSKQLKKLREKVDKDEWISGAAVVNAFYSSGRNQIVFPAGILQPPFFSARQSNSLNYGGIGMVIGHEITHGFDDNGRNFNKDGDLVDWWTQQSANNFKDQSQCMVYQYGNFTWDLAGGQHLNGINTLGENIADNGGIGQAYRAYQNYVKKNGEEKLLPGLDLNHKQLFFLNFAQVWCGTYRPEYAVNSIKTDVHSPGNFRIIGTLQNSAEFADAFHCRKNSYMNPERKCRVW
Description: In vitro inhibition of rat neutral endopeptidase by using GAAP as substrate. The gist of the method: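 Enzyme source was rat kidney cortex membranes (male Sprague-Dawley), 4.0 μg protein, plus 2.5 μg aminopeptidase M, in 50 mM Tris-HCl pH 7.4. Preincubated with inhibitor 10 min at 25 °C, then GAAP added (final 500 μM) for 25 min at 25 °C. Stopped with fast garnet, colour developed 30 min, OD read at 540 nm. Run in duplicate.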

The IC50 is the point on the concentration scale where inhibition reaches its midpoint. The low end stands for greater potency in that assay, the high end for weaker potency in that assay.

`O=C(O)CCC(=O)N[C@@H](CCC(=O)O)Cc1ccc(-c2ccccc2)cc1` came in with an IC50 of 99 nM.
